Amino acid sequences for entries named in this document (tags omitted). A change or cut given only in a name is not applied to a line headed by its entry. Residues count along the entry.
UniProt O94966: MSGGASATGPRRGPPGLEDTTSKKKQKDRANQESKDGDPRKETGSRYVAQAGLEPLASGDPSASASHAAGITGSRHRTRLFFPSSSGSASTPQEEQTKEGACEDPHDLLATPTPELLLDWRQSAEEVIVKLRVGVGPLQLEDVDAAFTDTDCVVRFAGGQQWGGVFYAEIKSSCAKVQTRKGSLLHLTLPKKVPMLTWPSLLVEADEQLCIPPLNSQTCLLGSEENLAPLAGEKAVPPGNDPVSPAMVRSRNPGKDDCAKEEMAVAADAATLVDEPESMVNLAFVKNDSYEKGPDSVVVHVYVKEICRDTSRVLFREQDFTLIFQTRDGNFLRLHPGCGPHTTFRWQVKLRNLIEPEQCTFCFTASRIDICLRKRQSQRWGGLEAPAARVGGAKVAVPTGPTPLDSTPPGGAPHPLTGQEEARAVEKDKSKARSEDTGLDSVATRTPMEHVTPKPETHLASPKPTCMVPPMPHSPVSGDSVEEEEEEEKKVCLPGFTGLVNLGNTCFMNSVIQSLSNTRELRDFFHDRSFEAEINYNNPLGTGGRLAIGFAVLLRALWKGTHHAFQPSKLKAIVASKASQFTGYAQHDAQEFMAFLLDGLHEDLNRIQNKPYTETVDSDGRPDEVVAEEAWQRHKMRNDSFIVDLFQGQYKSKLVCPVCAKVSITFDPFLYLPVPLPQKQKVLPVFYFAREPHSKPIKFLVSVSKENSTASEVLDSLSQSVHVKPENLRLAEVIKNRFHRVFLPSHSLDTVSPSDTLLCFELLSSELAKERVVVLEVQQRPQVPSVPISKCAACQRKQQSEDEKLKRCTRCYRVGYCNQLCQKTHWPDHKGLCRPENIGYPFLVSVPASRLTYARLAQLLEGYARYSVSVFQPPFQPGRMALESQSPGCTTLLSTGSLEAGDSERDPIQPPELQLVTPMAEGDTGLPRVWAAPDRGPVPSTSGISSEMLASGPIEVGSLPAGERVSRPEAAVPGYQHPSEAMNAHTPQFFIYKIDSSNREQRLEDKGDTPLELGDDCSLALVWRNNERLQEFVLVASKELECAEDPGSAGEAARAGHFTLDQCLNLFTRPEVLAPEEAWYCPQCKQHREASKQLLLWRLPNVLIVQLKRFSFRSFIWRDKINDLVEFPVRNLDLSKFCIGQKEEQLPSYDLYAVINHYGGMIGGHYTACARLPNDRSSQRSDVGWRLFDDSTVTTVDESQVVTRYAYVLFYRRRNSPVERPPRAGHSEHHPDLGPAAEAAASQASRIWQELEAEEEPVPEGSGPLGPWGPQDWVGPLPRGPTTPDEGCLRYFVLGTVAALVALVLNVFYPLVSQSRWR
UniProt P36888, 27-993: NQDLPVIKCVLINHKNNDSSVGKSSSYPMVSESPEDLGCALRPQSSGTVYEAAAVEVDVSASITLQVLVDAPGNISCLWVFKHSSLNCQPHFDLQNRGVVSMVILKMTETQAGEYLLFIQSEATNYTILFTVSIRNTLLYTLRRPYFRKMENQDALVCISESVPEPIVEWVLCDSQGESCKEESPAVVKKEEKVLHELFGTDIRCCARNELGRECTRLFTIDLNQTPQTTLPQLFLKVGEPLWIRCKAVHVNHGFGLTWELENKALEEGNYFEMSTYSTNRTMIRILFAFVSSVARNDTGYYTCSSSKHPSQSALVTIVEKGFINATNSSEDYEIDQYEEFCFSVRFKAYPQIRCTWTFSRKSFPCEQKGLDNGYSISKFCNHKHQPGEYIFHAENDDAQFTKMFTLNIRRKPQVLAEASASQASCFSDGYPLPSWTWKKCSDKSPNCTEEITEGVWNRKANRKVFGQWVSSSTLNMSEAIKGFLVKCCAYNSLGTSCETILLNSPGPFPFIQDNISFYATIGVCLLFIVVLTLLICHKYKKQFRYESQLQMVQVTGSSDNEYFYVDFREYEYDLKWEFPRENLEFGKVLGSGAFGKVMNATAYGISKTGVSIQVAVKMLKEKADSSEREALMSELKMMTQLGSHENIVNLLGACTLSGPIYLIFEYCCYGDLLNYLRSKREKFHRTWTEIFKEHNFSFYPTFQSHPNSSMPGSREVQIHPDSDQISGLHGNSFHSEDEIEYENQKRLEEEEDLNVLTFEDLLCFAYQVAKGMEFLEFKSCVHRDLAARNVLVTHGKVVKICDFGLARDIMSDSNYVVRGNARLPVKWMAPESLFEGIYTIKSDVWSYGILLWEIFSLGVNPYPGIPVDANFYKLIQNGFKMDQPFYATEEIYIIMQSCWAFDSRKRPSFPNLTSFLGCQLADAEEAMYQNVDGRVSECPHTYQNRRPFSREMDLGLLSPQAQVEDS
UniProt Q8IVW4: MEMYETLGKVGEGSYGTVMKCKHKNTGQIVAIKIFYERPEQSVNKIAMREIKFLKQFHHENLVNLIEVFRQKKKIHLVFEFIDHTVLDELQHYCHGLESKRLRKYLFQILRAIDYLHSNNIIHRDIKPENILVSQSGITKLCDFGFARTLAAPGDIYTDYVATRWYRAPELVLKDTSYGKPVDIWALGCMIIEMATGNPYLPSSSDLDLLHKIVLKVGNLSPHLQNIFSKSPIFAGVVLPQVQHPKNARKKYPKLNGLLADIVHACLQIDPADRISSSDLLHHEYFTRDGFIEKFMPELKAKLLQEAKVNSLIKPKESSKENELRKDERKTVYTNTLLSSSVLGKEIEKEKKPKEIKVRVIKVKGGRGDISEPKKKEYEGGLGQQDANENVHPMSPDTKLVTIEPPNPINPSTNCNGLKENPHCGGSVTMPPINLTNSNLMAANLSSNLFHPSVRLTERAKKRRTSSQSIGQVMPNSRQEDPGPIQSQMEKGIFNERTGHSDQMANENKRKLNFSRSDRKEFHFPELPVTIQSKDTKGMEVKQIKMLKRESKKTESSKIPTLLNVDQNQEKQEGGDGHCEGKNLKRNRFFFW
UniProt P0C1S8: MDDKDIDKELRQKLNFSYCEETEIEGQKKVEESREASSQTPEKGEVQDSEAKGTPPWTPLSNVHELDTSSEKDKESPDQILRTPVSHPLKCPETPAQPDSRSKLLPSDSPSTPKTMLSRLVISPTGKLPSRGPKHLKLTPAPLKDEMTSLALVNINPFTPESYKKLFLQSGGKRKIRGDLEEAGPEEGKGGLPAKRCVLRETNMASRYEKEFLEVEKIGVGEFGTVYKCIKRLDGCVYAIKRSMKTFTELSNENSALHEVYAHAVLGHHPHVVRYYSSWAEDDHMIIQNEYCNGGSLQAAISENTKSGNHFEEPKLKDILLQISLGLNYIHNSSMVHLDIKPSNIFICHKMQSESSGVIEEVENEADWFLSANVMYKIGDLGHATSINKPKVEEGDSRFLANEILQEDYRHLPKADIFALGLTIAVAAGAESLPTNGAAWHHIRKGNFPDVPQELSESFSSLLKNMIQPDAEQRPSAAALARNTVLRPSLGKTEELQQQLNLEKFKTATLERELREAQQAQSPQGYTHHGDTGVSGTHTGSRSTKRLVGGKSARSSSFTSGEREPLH
UniProt O43318, 1-303 limits assumed: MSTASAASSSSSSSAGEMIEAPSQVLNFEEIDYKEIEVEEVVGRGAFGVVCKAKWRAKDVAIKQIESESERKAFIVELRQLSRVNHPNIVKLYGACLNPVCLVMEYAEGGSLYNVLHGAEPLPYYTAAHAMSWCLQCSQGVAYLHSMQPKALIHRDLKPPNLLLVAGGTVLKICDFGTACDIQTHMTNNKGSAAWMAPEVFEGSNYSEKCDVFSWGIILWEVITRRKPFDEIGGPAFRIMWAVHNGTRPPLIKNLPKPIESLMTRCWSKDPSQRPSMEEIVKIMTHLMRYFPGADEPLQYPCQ
UniProt Q9Y4E8: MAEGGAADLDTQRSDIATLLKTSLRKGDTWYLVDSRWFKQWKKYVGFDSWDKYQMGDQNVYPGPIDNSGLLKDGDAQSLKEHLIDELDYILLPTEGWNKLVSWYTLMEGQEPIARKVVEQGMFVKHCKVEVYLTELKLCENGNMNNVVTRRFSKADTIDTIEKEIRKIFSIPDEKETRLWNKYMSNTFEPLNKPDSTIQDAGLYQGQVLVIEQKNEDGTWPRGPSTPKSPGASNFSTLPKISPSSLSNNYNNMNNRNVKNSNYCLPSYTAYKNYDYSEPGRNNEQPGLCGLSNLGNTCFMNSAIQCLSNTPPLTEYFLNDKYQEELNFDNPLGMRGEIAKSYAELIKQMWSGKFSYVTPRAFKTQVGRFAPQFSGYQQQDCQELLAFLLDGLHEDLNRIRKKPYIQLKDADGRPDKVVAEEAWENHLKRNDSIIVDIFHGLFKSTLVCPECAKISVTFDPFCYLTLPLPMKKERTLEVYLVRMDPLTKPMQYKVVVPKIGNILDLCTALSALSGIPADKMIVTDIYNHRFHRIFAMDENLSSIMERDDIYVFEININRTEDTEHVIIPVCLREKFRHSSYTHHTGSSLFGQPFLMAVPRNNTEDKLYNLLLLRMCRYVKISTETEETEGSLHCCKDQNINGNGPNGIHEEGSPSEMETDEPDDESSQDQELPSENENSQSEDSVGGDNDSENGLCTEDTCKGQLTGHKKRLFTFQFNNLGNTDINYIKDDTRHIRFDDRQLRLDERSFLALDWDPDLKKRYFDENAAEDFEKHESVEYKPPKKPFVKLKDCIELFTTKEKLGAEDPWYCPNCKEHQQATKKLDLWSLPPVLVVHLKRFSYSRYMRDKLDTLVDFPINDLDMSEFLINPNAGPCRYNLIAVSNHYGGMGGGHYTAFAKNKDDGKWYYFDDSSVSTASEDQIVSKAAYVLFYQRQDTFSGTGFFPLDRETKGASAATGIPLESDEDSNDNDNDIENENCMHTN
UniProt P78368: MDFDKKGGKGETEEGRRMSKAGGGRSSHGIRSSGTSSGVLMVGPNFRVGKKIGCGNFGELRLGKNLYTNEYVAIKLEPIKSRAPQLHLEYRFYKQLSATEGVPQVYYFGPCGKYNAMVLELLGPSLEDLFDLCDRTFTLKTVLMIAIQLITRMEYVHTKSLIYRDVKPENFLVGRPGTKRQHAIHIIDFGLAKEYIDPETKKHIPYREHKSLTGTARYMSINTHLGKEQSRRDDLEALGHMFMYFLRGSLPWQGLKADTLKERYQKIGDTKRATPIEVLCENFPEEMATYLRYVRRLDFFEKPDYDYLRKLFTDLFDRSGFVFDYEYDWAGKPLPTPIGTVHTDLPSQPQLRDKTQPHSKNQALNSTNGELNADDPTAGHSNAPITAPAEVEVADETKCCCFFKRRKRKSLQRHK
UniProt P08069, 31-1367: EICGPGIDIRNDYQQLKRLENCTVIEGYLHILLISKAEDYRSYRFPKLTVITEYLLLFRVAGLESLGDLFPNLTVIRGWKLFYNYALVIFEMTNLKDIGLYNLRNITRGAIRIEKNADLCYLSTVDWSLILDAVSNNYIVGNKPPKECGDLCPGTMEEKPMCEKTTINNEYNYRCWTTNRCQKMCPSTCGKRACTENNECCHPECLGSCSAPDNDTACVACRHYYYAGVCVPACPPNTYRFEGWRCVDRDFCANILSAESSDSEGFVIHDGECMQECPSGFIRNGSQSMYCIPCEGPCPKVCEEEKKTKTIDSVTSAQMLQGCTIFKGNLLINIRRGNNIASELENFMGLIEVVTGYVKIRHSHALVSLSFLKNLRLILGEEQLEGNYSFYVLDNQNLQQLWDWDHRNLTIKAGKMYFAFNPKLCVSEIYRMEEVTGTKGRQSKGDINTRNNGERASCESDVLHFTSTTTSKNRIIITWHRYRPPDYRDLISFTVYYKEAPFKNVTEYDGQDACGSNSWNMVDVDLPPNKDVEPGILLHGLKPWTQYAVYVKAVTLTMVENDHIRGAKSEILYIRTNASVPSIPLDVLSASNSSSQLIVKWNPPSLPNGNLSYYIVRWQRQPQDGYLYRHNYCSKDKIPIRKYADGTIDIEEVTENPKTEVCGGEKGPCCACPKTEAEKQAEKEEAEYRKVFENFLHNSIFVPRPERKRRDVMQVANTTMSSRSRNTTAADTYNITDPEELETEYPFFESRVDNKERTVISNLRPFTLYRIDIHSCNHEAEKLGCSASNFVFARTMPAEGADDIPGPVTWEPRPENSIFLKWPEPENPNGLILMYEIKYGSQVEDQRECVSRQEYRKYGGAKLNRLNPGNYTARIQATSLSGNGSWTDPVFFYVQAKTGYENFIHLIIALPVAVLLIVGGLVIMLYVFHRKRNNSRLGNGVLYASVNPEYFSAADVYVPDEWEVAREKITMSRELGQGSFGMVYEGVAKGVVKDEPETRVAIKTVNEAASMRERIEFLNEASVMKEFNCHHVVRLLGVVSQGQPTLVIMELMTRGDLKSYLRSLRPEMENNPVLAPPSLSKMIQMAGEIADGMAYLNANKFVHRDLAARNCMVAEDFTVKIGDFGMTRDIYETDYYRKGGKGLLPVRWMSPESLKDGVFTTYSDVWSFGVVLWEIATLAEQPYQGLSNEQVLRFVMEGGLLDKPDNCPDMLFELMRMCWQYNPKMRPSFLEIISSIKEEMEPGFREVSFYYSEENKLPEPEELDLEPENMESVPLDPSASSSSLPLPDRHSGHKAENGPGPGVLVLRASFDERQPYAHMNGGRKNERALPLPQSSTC

In paper PMC10009755, “Discovery and Characterization of BAY-805, a Potent and Selective Inhibitor of Ubiquitin-Specific Protease USP21” (Journal of Medicinal Chemistry, 2023):

Legend:
Assay in all cases: biochemical
EphA5(h) = EphA5(h) (Homo sapiens, UniProt P54756)
USP19 = USP19 (Homo sapiens, UniProt O94966); conditions: read-out: Activity (% Control)
CDK18/cyclinY(h) = CDK18/cyclinY(h) (Homo sapiens, UniProt Q07002)
CK1epsilon(h) = CK1epsilon(h) (Homo sapiens, UniProt P49674)
[1] = target: Leukotriene LTC4 Synthase (Homo sapiens, UniProt Q16873); conditions: read-out: % Inh.
CDK4/cyclinD3(h) = CDK4/cyclinD3(h) (Homo sapiens, UniProt P11802)
Insulin = Insulin (Rattus norvegicus, UniProt P15127); conditions: read-out: % Inh.
GRK2(h) = GRK2(h) (Homo sapiens, UniProt P25098)
MEKK3(h) = MEKK3(h) (Homo sapiens, UniProt Q99759)
USP6 = USP6 (Homo sapiens, UniProt P35125); conditions: read-out: Activity (% Control)
Flt3(h) = Flt3(h) (Homo sapiens, UniProt P36888)
CDKL3(h) = CDKL3(h) (Homo sapiens, UniProt Q8IVW4)
DYRK2(h) = DYRK2(h) (Homo sapiens, UniProt Q92630)
Mnk2(h) = Mnk2(h) (Homo sapiens, UniProt Q9HBH9)
ZAK(h) = ZAK(h) (Homo sapiens, UniProt Q9NYL2)
TAO1(h) = TAO1(h) (Homo sapiens, UniProt Q7L7X3)
Histamine H1 = Histamine H1 (Homo sapiens, UniProt P35367); conditions: read-out: % Inh.
JAK2(h) = JAK2(h) (Homo sapiens, UniProt O60674)
Wee1B(h) = Wee1B(h) (Homo sapiens, UniProt P0C1S8)
Fyn(h) = Fyn(h) (Homo sapiens, UniProt P06241)
USP30 = USP30 (Homo sapiens, UniProt Q70CQ3); conditions: read-out: Activity (% Control)
CLK3(h) = CLK3(h) (Homo sapiens, UniProt P49761)
Ret(h) = Ret(h) (Homo sapiens, UniProt P07949)
SNRK(h) = SNRK(h) (Homo sapiens, UniProt Q9NRH2)
Blk(h) = Blk(h) (Homo sapiens, UniProt P51451)
TAK1(h) = TAK1(h) (Homo sapiens, UniProt O43318)
PKG1beta(h) = PKG1beta(h) (Homo sapiens, UniProt Q13976)
[2] = target: Transporter, Serotonin (5-Hydroxytryptamine) (SERT) (Homo sapiens, UniProt P31645); conditions: read-out: % Inh.
ARK5(h) = ARK5(h) (Homo sapiens, UniProt O60285)
MAP4K4(h) = MAP4K4(h) (Homo sapiens, UniProt O95819)
MEK1(h) = MEK1(h) (Homo sapiens, UniProt Q02750)
STK25(h) = STK25(h) (Homo sapiens, UniProt O00506)
GRK5(h) = GRK5(h) (Homo sapiens, UniProt P34947)
USP15 = USP15 (Homo sapiens, UniProt Q9Y4E8); conditions: read-out: Activity (% Control)
PDGFRbeta(h) = PDGFRbeta(h) (Homo sapiens, UniProt P09619)
CK1gamma2(h) = CK1gamma2(h) (Homo sapiens, UniProt P78368)
STK33(h) = STK33(h) (Homo sapiens, UniProt Q9BYT3)
FGFR1(h) = FGFR1(h) (Homo sapiens, UniProt P11362)
EphA7(h) = EphA7(h) (Homo sapiens, UniProt Q15375)
IGF-1R(h) = IGF-1R(h) (Homo sapiens, UniProt P08069)
SAPK2a(h) = SAPK2a(h) (Homo sapiens, UniProt Q16539)

Molecule `CC(C)C[C@@H](NC(=O)C1(C(F)(F)F)CCCCC1)C(=O)Nc1nnc(Cc2ccc(C#N)cc2)s1` [Compound 21, N-[(1R)-1-[[5-[(4-Cyanophenyl)methyl]-1,3,4-thiadiazol-2-yl]carbamoyl]-3-methyl-butyl]-1-(trifluoromethyl)cyclohexanecarboxamide] has an inhibition at 10 µM (EphA5(h)) of 6.76%, a remaining activity at 1 µM (USP19) of 100% and a remaining activity at 10 µM (USP19) of 101%. For the same molecule, the inhibition at 10 µM (CDK18/cyclinY(h)) was 3.5%, the inhibition at 10 µM (CK1epsilon(h)) was 9.53% and the inhibition at 10 µM [1] was 35%. It also gave an inhibition at 10 µM (CDK4/cyclinD3(h)) of 3.86%, an inhibition at 10 µM (Insulin) of 10% and an inhibition at 10 µM (GRK2(h)) of 5.48%. It also gave an inhibition at 10 µM (MEKK3(h)) of 1.98%, a remaining activity at 1 µM (USP6) of 106% and a remaining activity at 10 µM (USP6) of 102%. For the same molecule, the inhibition at 10 µM (Flt3(h)) was 0.65%, the inhibition at 10 µM (CDKL3(h)) was -1.25% and the inhibition at 10 µM (DYRK2(h)) was 4.51%. The inhibition at 10 µM (Mnk2(h)) was 10.1%, the inhibition at 10 µM (ZAK(h)) was -1.56% and the inhibition at 10 µM (TAO1(h)) was 4.17%. It also gave an inhibition at 10 µM (Histamine H1) of -1%, an inhibition at 10 µM (JAK2(h)) of -3.89% and an inhibition at 10 µM (Wee1B(h)) of 7.44%. For the same molecule, the inhibition at 10 µM (Fyn(h)) was -2.08%, the remaining activity at 1 µM (USP30) was 102% and the remaining activity at 10 µM (USP30) was 97%. For the same molecule, the inhibition at 10 µM (CLK3(h)) was -15.7%, the inhibition at 10 µM (Ret(h)) was -7.7% and the inhibition at 10 µM (SNRK(h)) was 8.39%. It also gave an inhibition at 10 µM (Blk(h)) of -2.02%, an inhibition at 10 µM (TAK1(h)) of -6.84% and an inhibition at 10 µM (PKG1beta(h)) of 0.39%. The inhibition at 10 µM [2] was 13%, the inhibition at 10 µM (ARK5(h)) was -0.18% and the inhibition at 10 µM (MAP4K4(h)) was 8.2%. It also gave an inhibition at 10 µM (MEK1(h)) of -0.02%, an inhibition at 10 µM (STK25(h)) of 12.2% and an inhibition at 10 µM (GRK5(h)) of -6.49%. The remaining activity at 1 µM (USP15) was 118%, the remaining activity at 10 µM (USP15) was 113% and the inhibition at 10 µM (PDGFRbeta(h)) was 6.52%. It also gave an inhibition at 10 µM (CK1gamma2(h)) of 9.63%, an inhibition at 10 µM (STK33(h)) of 1.36% and an inhibition at 10 µM (FGFR1(h)) of -3.5%. For the same molecule, the inhibition at 10 µM (EphA7(h)) was -1.14%, the inhibition at 10 µM (IGF-1R(h)) was -23.6% and the inhibition at 10 µM (SAPK2a(h)) was 2.13%.
With `CC(C)C[C@H](NC(=O)C1(C(F)(F)F)CCCCC1)C(=O)Nc1nnc(Cc2ccc(C#N)cc2)s1` [Compound 22, CC(C)C[C@H](NC(=O)C1(CCCCC1)C(F)(F)F)C(=O)Nc2nnc(Cc3ccc(cc3)C#N)s2] the inhibition at 10 µM (EphA5(h)) was -2.12%, the remaining activity at 1 µM (USP19) was 93% and the remaining activity at 10 µM (USP19) was 96%. For the same molecule, the inhibition at 10 µM (CDK18/cyclinY(h)) was 2.07%, the inhibition at 10 µM (CK1epsilon(h)) was 3.02% and the inhibition at 10 µM [1] was 5%. The inhibition at 10 µM (CDK4/cyclinD3(h)) was 0.72%, the inhibition at 10 µM (Insulin) was -5% and the inhibition at 10 µM (GRK2(h)) was -0.15%. For the same molecule, the inhibition at 10 µM (MEKK3(h)) was 4.03%, the remaining activity at 1 µM (USP6) was 108% and the remaining activity at 10 µM (USP6) was 105%. For the same molecule, the inhibition at 10 µM (Flt3(h)) was 8.17%, the inhibition at 10 µM (CDKL3(h)) was 0.86% and the inhibition at 10 µM (DYRK2(h)) was -1.89%. It also gave an inhibition at 10 µM (Mnk2(h)) of 28.7%, an inhibition at 10 µM (ZAK(h)) of -5.15% and an inhibition at 10 µM (TAO1(h)) of -1.18%. The inhibition at 10 µM (Histamine H1) was 5%, the inhibition at 10 µM (JAK2(h)) was -2.9% and the inhibition at 10 µM (Wee1B(h)) was 11.7%. The inhibition at 10 µM (Fyn(h)) was 1.56%, the remaining activity at 1 µM (USP30) was 98% and the remaining activity at 10 µM (USP30) was 103%. It also gave an inhibition at 10 µM (CLK3(h)) of -16.1%, an inhibition at 10 µM (Ret(h)) of 1.67% and an inhibition at 10 µM (SNRK(h)) of 0.06%. It also gave an inhibition at 10 µM (Blk(h)) of 3.04%, an inhibition at 10 µM (TAK1(h)) of -8.54% and an inhibition at 10 µM (PKG1beta(h)) of 3.46%. The inhibition at 10 µM [2] was 11%, the inhibition at 10 µM (ARK5(h)) was 10.7% and the inhibition at 10 µM (MAP4K4(h)) was 8.87%. For the same molecule, the inhibition at 10 µM (MEK1(h)) was 1.44%, the inhibition at 10 µM (STK25(h)) was 20% and the inhibition at 10 µM (GRK5(h)) was -1.71%. The remaining activity at 1 µM (USP15) was 101%, the remaining activity at 10 µM (USP15) was 105% and the inhibition at 10 µM (PDGFRbeta(h)) was -3.59%. The inhibition at 10 µM (CK1gamma2(h)) was 5.69%, the inhibition at 10 µM (STK33(h)) was 2.39% and the inhibition at 10 µM (FGFR1(h)) was 2.15%. The inhibition at 10 µM (EphA7(h)) was 4.64%, the inhibition at 10 µM (IGF-1R(h)) was -24.4% and the inhibition at 10 µM (SAPK2a(h)) was 4.9%.
